Target: aMLV envelope on pseudotyped virus (negative control) (aMLV)
Assay: cell-based or functional assay

B1: 1456_P20 (PG20) (antibody, V domains shown)
VH: QVRLVQSGPEVKKPGSSVTVSCQASGGTFSSYAFTWVRQAPGQGLEWLGMVTPIFGEAKYSQRFEGRVTITADESTSTTSIELRGLTSEDTAIYYCARDRRAVPIATDNWLDPWGQGTLVTVSS
VL: DIQLTQSPSSLSASVGDRVSITCRASQTINNYLNWYQQTPGKAPKLLIYGASNLQNGVPSRFSGSGSGTDFTLTISSLQPEDFATYYCQQSFSTPRTFGQGTRLDIKR
IC50, Neutralizing Antibody Assay, Virus/Ab Incubation 1 hour: > 50 µg/mL | IC50, Neutralizing Antibody Assay, Virus/Ab Incubation 18 hour: > 50 µg/mL
